Experimental findings from US20230218577A1, “USE OF HEAT SHOCK PROTEIN INHIBITORS FOR THE TREATMENT OF NEURODEVELOPMENTAL DISORDERS” (The Children's Medical Center Corporation, priority 2020, published 2023) are described below.

Where two headings read alike, the source gives them in different places.

In the assay the test system is mTORC1 activity (pS6) in Tsc2-sh hippocampal neurons. As to the kind of experiment: mTORC1 high-content screen (mTORC1^HCA) with the Biomol collection library.
Setting [1] is: Z-score of percent GFP+pS6+ neurons in compound-treated Tsc2-knockdown wells, DIV20, Biomol library screen, replica 1.
The mark [2] stands for this setting: Z-score of percent GFP+pS6+ neurons in compound-treated Tsc2-knockdown wells, DIV20, Biomol library screen, replica 2.
Where [3] appears, read: Z-score of percent GFP+pS6+ neurons in compound-treated Tsc2-knockdown wells, DIV20, Biomol library, replica 1.
Setting [4] is: Z-score of percent GFP+pS6+ neurons in compound-treated Tsc2-knockdown wells, DIV20, Biomol library, replica 2.

For 1-Deoxymannojirimycin hydrochloride, the “T2 Zscore (Replica 1)” value under setting [1] was −0.4582. Also, the “T2 Zscore (Replica 2)” value under setting [2] worked out at 1.454.
Turning to 2-APB, the “T2 Zscore (Replica 1)” value is listed as 0.1417 and the “T2 Zscore (Replica 2)” value amounted to 0.0331.
As to `CCCCC(C)(O)C/C=C/[C@H]1[C@H](O)CC(=O)[C@@H]1CCCCCCC(=O)O` (mixture of isomers) [Misoprostol, free acid], the “T2 Zscore (Replica 1)” value under setting [1] stood at 0.7325. Under setting [2], the “T2 Zscore (Replica 2)” value came to 0.625.
As for `CCCCCC1OC1C/C=C\C/C=C\C/C=C\CCCC(=O)O` (racemic), the “T2 Zscore (Replica 1)” value is 1.341 and the “T2 Zscore (Replica 2)” value was 1.193.
Consider `CCCCC/C=C\CC1OC1C/C=C\C/C=C\CCCC(=O)O` (racemic) [(±)11(12)-Epoxy eicosatrienoic acid], for which the “T2 Zscore (Replica 1)” value turned out to be 0.8776 and the “T2 Zscore (Replica 2)” value is on record as 0.8285.
Taken in the same sequence, the figures for `Clc1ccc(C2CC3CCC2N3)cn1` (racemic) [(±)-Epibatidine] were 1.863 and 0.5841.
Consider `CCCCCCCCCCCCCCC[C@H](O)[C@@H](N)CO` (racemic) [DL-Dihydrosphingosine], for which the “T2 Zscore (Replica 1)” value under setting [3] is listed as 1.976. The “T2 Zscore (Replica 2)” value under setting [4] amounted to 1.253.
Take `CCCCCCCCCC(=O)N[C@H](CN1CCOCC1)[C@H](O)c1ccccc1` (racemic) [DL-PDMP]: the “T2 Zscore (Replica 1)” value is reported as −0.7598 and the “T2 Zscore (Replica 2)” value is given as −1.578.
For `CCCCCCCCCCCCCCCC(=O)N[C@H](CN1CCOCC1)[C@H](O)c1ccccc1` (racemic) [DL-PPMP], in that order: 0.4795 and 0.4289.
As to `CCCCCC[C@@H]([C@@H](C)O)n1cnc2c(N)ncnc21` (racemic) [EHNA], the “T2 Zscore (Replica 1)” value amounted to 0.1919 and the “T2 Zscore (Replica 2)” value is −1.11.
Turning to `COC1=CC(=O)O[C@@H](/C=C/c2ccccc2)C1` (racemic) [Kavain (+/−)], the “T2 Zscore (Replica 1)” value is reported as −0.009244 and the “T2 Zscore (Replica 2)” value came to 0.1749.
As for `CN(C)C[C@H](O)Cn1c2ccc(Br)cc2c2cc(Br)ccc21` (racemic) [Wiskostatin], the “T2 Zscore (Replica 1)” value under setting [1] is −0.05566. Under setting [2], the “T2 Zscore (Replica 2)” value is recorded as 1.137.
Turning to `CCCCCCCCCC(=O)OCC(CO)OC(=O)CCCCCCCCC` (stereo not shown) [1,2-Didecanoyl-glycerol (10:0)], the “T2 Zscore (Replica 1)” value was 1.059 and the “T2 Zscore (Replica 2)” value is recorded as −0.4534.
Turning to `CCCCCCCC/C=C\CCCCCCCC(=O)OCC(CO)OC(=O)CCCCCCC/C=C\CCCCCCCC` (stereo not shown) [1,2-Dioleoyl-glycerol (18:1)], the “T2 Zscore (Replica 1)” value is −0.3636 and the “T2 Zscore (Replica 2)” value was −0.5685.
`OC[C@H]1NC[C@H](O)[C@@H](O)[C@@H]1O` [1-Deoxynojirimycin]: the “T2 Zscore (Replica 1)” value under setting [1] is 0.4012. In addition, under setting [2], the “T2 Zscore (Replica 2)” value is reported as −0.101.
On to `CCCCCCCCCCCCCCCCOCC(COP(=O)([O-])OCC[N+](C)(C)C)OC` (stereo not shown) [1-Hexadecyl-2-methylglycero-3 PC], for which the “T2 Zscore (Replica 1)” value was 0.6829 and the “T2 Zscore (Replica 2)” value is 0.001075.
On to `CCCCC/C=C\C/C=C\CCCCCCCC(=O)OC(CO)COC(=O)CCCCCCCCCCCCCCCCC` (stereo not shown) [1-Stearoyl-2-lineoyl-glycerol], for which the “T2 Zscore (Replica 1)” value amounted to 0.1701 and the “T2 Zscore (Replica 2)” value worked out at 1.561.
For `CC(C)(C)c1cc(O)c(C(C)(C)C)cc1O` [2,5-Ditertbutylhydroquinone], the “T2 Zscore (Replica 1)” value under setting [1] is given as 0.8977. In addition, under setting [2], the “T2 Zscore (Replica 2)” value was found to be 0.1443.
Take `CCCCC/C=C\C/C=C\C/C=C\C/C=C\CCCC(=O)OC(CO)CO` [2-Arachidonoylglycerol]: the “T2 Zscore (Replica 1)” value stood at 1.604 and the “T2 Zscore (Replica 2)” value is −0.9465.
Take `CCCCCCCCCCCCCCC(F)C(=O)O` (stereo not shown) [2-Fluoropalmitic acid]: the “T2 Zscore (Replica 1)” value under setting [1] is reported as 0.8052. The “T2 Zscore (Replica 2)” value under setting [2] is −0.04616.
With `CCCC[C@H]1C(=O)O[C@H](C)[C@H](NC(=O)c2cccc(NC=O)c2OC)C(=O)O[C@@H](C)[C@@H]1OC(=O)CC(C)C` [2-methoxyantimycin A3], the “T2 Zscore (Replica 1)” value is given as 0.3786 and the “T2 Zscore (Replica 2)” value is on record as 1.462.
Consider `O=c1oc(Cl)c(Cl)c2ccccc12` [3,4-dichloroisocoumarin], for which the “T2 Zscore (Replica 1)” value under setting [1] came to 0.3453. Further, the “T2 Zscore (Replica 2)” value under setting [2] is reported as 1.548.
With `NC(=O)c1cccc(N)c1` [3-aminobenzamide (3-ABA)], the “T2 Zscore (Replica 1)” value is −1.513 and the “T2 Zscore (Replica 2)” value was 0.6779.
For `Nc1ccncc1` [4-Aminopyridine], in that order: 0.1462 and 0.3098.
As for `CC1=C(/C=C/C(C)=C/C=C/C(C)=C/C(=O)Nc2ccc(O)cc2)C(C)(C)CCC1` [4-hydroxyphenylretinamide], the “T2 Zscore (Replica 1)” value is recorded as −0.2968 and the “T2 Zscore (Replica 2)” value came to 0.2379.
As for `CCCCC/C=C\C/C=C\C/C=C\C=C\[C@@H](O)CCCC(=O)O` [5(S)-HETE], the “T2 Zscore (Replica 1)” value stood at 0.2342 and the “T2 Zscore (Replica 2)” value was −0.2258.
As to `CCCCC/C=C\C/C=C\C/C=C\C=C\[C@H](CCCC(=O)O)OO` [5(S)-HPETE], the “T2 Zscore (Replica 1)” value was 1.034 and the “T2 Zscore (Replica 2)” value is 1.732.
On to `CCCCCCCCC#CCC#CCC#CCCCC(=O)O` [5,8,11-Eicosatriynoic acid], for which the “T2 Zscore (Replica 1)” value under setting [3] is 1.075. In addition, the “T2 Zscore (Replica 2)” value under setting [4] stood at 0.7076.
Consider `CCCCCC(O)CCCC(=O)O` (stereo not shown) [5-Hydroxydecanoate], for which the “T2 Zscore (Replica 1)” value under setting [1] is 0.2181. Besides, the “T2 Zscore (Replica 2)” value under setting [2] is reported as 0.2414.
`Nc1ncnc2c1c(I)cn2[C@@H]1O[C@H](CO)[C@@H](O)[C@H]1O` [5-Iodotubercidin]: the “T2 Zscore (Replica 1)” value is −1.537 and the “T2 Zscore (Replica 2)” value is −1.555.
In the case of `O=c1[nH]c2ccccc2c2ccccc12` [6(5H)-Phenanthridinone], the “T2 Zscore (Replica 1)” value under setting [1] was −0.1416. Also, under setting [2], the “T2 Zscore (Replica 2)” value came to 0.436.
As to `NC1CCc2cc(O)c(O)cc2C1` (stereo not shown) [6,7-ADTN], the “T2 Zscore (Replica 1)” value is listed as 0.4884 and the “T2 Zscore (Replica 2)” value is given as −0.2632.
On to `CCCCC[C@H](O)CC(=O)CCc1ccc(O)c(OC)c1` [6-Gingerol], for which the “T2 Zscore (Replica 1)” value under setting [3] is listed as 1.125. Moreover, the “T2 Zscore (Replica 2)” value under setting [4] was determined as 1.46.
Regarding `CCCCC[C@H](O)/C=C/[C@@H]1[C@@H](CC(=O)CCCCC(=O)O)[C@@H](O)C[C@H]1O` [6-Keto-prostaglandin F1a], the “T2 Zscore (Replica 1)” value is recorded as −1.083 and the “T2 Zscore (Replica 2)” value is reported as −0.1527.
Regarding `CCCCCCCCCCC/C=C\C(C)(C)/C=C\CCCC(=O)O` [7,7-Dimethyleicosadienoic acid], the “T2 Zscore (Replica 1)” value is reported as −0.1154 and the “T2 Zscore (Replica 2)” value was found to be 1.085.
For `Nc1nc2c(nc(Br)n2[C@@H]2O[C@@H]3COP(=O)(O)O[C@H]3[C@H]2O)c(=O)[nH]1` [8-Bromo-cGMP], the “T2 Zscore (Replica 1)” value is recorded as 0.1414 and the “T2 Zscore (Replica 2)” value stood at 0.4611.
As to `CCCCC[C@H](O)/C=C/[C@@H]1[C@H](C/C=C\CCCC(=O)O)[C@@H](O)C[C@H]1O` [8-epi-Prostaglandin F2a], the “T2 Zscore (Replica 1)” value is reported as −0.3759 and the “T2 Zscore (Replica 2)” value is reported as −0.1808.
For the molecule `COCc1nc2c([nH]1)c(=O)n(C)c(=O)n2CC(C)C` [8-methoxymethyl-IBMX], the “T2 Zscore (Replica 1)” value came to 0.6281 and the “T2 Zscore (Replica 2)” value was found to be 0.7969.
